# In US8754079B2, “Cycloalkyl containing thienopyrimidines for pharmaceutical compositions” (Boehringer Ingelheim International GmbH, priority 2010, dated 2014):
# The chains behind the UniProt entries cited, without tags or fusion partners.
# UniProt Q9HBH9, whole entry: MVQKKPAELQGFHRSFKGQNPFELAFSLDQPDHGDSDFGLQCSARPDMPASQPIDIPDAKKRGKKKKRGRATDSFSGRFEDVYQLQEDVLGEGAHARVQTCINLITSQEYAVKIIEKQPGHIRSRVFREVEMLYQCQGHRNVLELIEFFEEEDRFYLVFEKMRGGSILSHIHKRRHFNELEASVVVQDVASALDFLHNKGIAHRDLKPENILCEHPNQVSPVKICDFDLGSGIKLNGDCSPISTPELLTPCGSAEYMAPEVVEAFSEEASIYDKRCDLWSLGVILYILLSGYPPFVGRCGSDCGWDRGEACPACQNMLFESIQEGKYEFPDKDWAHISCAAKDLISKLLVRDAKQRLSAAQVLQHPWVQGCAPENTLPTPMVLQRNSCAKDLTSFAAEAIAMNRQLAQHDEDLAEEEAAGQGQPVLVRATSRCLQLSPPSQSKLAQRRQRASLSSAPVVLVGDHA
# Molecular target: MNK2 (Homo sapiens, UniProt Q9HBH9)
# Experiment: Mnk2a in vitro kinase assay (indirect fluorescence polarization)
# Type: biochemical
# Conditions: read-out: MNK2 IC50; pre-activated GST-Mnk2a 2.5 nM, 20 μM ATP, 30 μM substrate peptide
# Method: Inhibitory potency of compounds against Mnk1, Mnk2a and other kinases was assessed with assays based on a format known to those skilled in the art as the indirect (competitive) fluorescence polarization. The assay detection system comprises a small fluorophore-labeled phospho-peptide (termed ligand) bound to a phospho-specific antibody. The product generated by the kinase reaction competes with the ligand for antibody binding. Based on the larger molecular volume of the bound ligand, which results in a lower rotation rate in solution, its emitted light has a higher degree of polarization than the one from the free ligand.
# Example 2a. Mnk1 and Mnk2a in vitro kinase assay
# As a source of enzyme, human Mnk1 and human Mnk2a were expressed as GST fusion proteins in E. coli, purified to >80% homogeneity by glutathione affinity chromatography and activated in vitro with pre-activated ERK2. In brief, the open reading frames of human Mnk1 and Mnk2a were amplified from cDNA using the forward/reverse primer pairs
# (utilized restriction sites underlined), respectively, and cloned into the BamHI and SalI sites of the vector pGEX-4T1 (Amersham, Sweden, cat. no. 27-4580-01). These constructs allow prokaryotic expression of Mnk1 or Mnk2a as fusion protein with a N-terminal glutathione S-transferase (GST) tag, referred to as GST-Mnk1 or GSTMnk2a. The following expression and purification procedure was identical for GSTMnk1 and GST-Mnk2a, referring in general to GST-Mnk, when not distinguishing between the two isoforms. Expression of GST-Mnk was in E. coli BL21 (Merck Biosciences, Germany, cat. no. 69449). Cells were grown in LB-Bouillon (Merck, Germany, cat. no. 1.10285) supplemented with 100 μg/ml ampicillin (Sigma, Germany, cat. no. A9518) at 37° C. When the culture had reached a density corresponding to an A600 of 0.8, an equal volume of ice cold LB/ampicillin was added, the culture transferred to 25° C. and induced for 4 h with 1 mM isopropyl thiogalactoside (IPTG, Roth, Germany, cat. no. 2316.4). Cells harvested by centrifugation were resuspended in 10 ml lysis buffer (50 mM tris(hydroxymethyl)aminomethane hydrochloride (Tris/HCl, Sigma, Germany, cat. no. T5941) pH 7.5, 300 mM sodium chloride (NaCl, Sigma, Germany, cat. no. S7653), 5% (w/v) glycerol (Sigma, Germany, cat. no. G5516), 3 mM DTT dithiotreitol (DTT, Sigma, Germany, cat. no. D9779)) per gram wet weight cell pellet. Lysates were prepared by disruption of cells with a sonifier and subsequent clearing by centrifugation at 38000 g for 45 min at 4° C.
# The lysate was applied to a GSTPrep FF 16/10 column (Amersham, Sweden, cat. no. 17-5234-01) equilibrated with lysis buffer. Removal of unbound material was with 3 column volumes (CV) lysis buffer. Elution was with 2 CV of elution buffer (50 mM Tris/HCl pH 7.5, 300 mM NaCl, 5% (w/v) glycerol, 20 mM glutathione (Sigma, Germany, cat. no. G4251)). Peak fractions were pooled and the protein transferred into storage buffer (50 mM Tris/HCl pH 7.5, 200 mM NaCl, 0.1 mM ethylene glycolbis(2-aminoethylether)-N,N,N′,N′-tetraacetic acid (EGTA, Aldrich, Germany, cat. no. 23, 453-2), 1 mM DTT, 10% (w/v) glycerol, 0.5 M sucrose (Sigma, Germany, cat. no. S0389) by gel filtration on a PD10 desalting column (Amersham, Sweden, cat. no. 17-0851-01). Aliquots were shock frozen in liquid nitrogen and stored at −80° C.
# Activation of Mnk1 and Mnk2a was at a concentration of 2.5 μM of either purified GST-Mnk1 or GST-Mnk2a by incubation with 150 nM pre-activated NHis-ERK2 (see ERK2 assay for preparation) and 50 μM adenosine triphosphate (ATP, Sigma, cat. no. A2699) in a buffer comprising 20 mM N-(2-hydroxyethyl)piperazine-N′-(2-ethanesulfonic acid) (HEPES, Fluka, Germany, cat. no 54459)/potassium hydroxide (KOH, Roth, Germany, cat. no 6751.1) pH 7.4, 10 mM magnesium chloride (MgCl2, Sigma, Germany, cat. no. M2670), 0.25 mM DTT, 0.05% (w/v) polyoxyethylene 20 stearylether (Brij 78, Sigma, Germany, cat. no. P4019) (HMDB buffer) for 45 min at 30° C. […]
row,Compound,IC50 [nM]
1,CO[C@H]1CC[C@H](Oc2cc(F)ccc2Nc2ncnc3sc(C(=O)NCCCN4CC[C@@H](O)C4)c(C)c23)CC1,4
2,CO[C@H]1CCCC[C@@H]1Oc1cc(F)ccc1Nc1ncnc2sc(C(=O)NCCCN3CCCC3)c(C)c12,260
3,Cc1c(C(=O)NCCO)sc2ncnc(Nc3ccc(F)cc3O[C@@H]3CCC[C@@H](O)C3)c12 (relative stereo),17
4,Cc1c(C(=O)NC2CCN(C)CC2)sc2ncnc(Nc3ccc(F)cc3O[C@H]3CC[C@H](O)CC3)c12,17
5,Cc1c(C(=O)NCCCN(C)C)sc2ncnc(Nc3ccc(F)cc3O[C@H]3C[C@@H]4OCO[C@@H]4C3)c12,49
6,CO[C@H]1CCCC[C@@H]1Oc1cc(F)ccc1Nc1ncnc2sc(C(=O)NCCC3CCCN3C)c(C)c12 (stereo partly shown),410
7,CO[C@H]1CC[C@H](Oc2cc(F)ccc2Nc2ncnc3sc(C(=O)NC4CCN(C)CC4)c(C)c23)CC1,25
8,CO[C@H]1C[C@@H](Oc2cc(F)ccc2Nc2ncnc3sc(C(=O)NCCCN(C)C)c(C)c23)C[C@H]1OC (relative stereo),130
9,CO[C@H]1CC[C@H](Oc2cc(F)ccc2Nc2ncnc3sc(C(=O)NCCCN(C)C)c(C)c23)CC1,21
10,CO[C@H]1CCCC[C@@H]1Oc1cc(F)ccc1Nc1ncnc2sc(C(=O)NCCCN3CCOCC3)c(C)c12,480
11,CO[C@H]1CC[C@H](Oc2cc(F)ccc2Nc2ncnc3sc(C(=O)NCCC4CCCN4C)c(C)c23)CC1 (stereo partly shown),14
12,CO[C@H]1CCC[C@@H](Oc2ncccc2Nc2ncnc3sc(C(=O)NCCCN(C)C)c(C)c23)C1,17
13,CO[C@H]1CC[C@H](Oc2ncccc2Nc2ncnc3sc(C(=O)NCCCN(C)C)c(C)c23)CC1,22
14,Cc1c(C(=O)NCCCN(C)C)sc2ncnc(Nc3ccc(F)cc3O[C@@H]3CCCC[C@@H]3O)c12,175
15,Cc1c(C(=O)NCCCN(C)C)sc2ncnc(Nc3ccc(F)cc3O[C@H]3CCCC[C@H]3O)c12,42
16,CO[C@@H]1CCC[C@@H](Oc2ncccc2Nc2ncnc3sc(C(=O)NCCCN(C)C)c(C)c23)C1,65
17,Cc1c(C(=O)NCCCN(C)C)sc2ncnc(Nc3ccc(F)cc3OC3CCCC(O)C3)c12 (stereo not shown),18
18,CO[C@@H]1CCCC[C@H]1Oc1cc(F)ccc1Nc1ncnc2sc(C(=O)NCCCN(C)C)c(C)c12,19

# Results, then the molecule that gave them:
row,IC50 [nM],Compound
1,12,Cc1c(C(=O)NCCCN2CCOCC2)sc2ncnc(Nc3ccc(F)cc3O[C@H]3CC[C@H](O)CC3)c12
2,460,CO[C@H]1CCCC[C@@H]1Oc1cc(F)ccc1Nc1ncnc2sc(C(=O)NCCCn3ccnc3)c(C)c12
3,18,CO[C@H]1CC[C@H](Oc2cc(F)ccc2Nc2ncnc3sc(C(=O)NCCCN4CCCC4)c(C)c23)CC1
4,21,Cc1c(C(=O)NCC2COCCN2)sc2ncnc(Nc3ccc(F)cc3O[C@H]3CC[C@H](O)CC3)c12 (stereo partly shown)
5,5,CO[C@H]1CC[C@H](Oc2cc(F)ccc2Nc2ncnc3sc(C(=O)NCCCN4CC[C@H](O)C4)c(C)c23)CC1
6,380,CO[C@H]1CCCC[C@@H]1Oc1cc(F)ccc1Nc1ncnc2sc(C(=O)NCCO)c(C)c12
7,9,Cc1c(C(=O)NCCC2CCCN2C)sc2ncnc(Nc3ccc(F)cc3O[C@H]3CC[C@H](O)CC3)c12 (stereo partly shown)
8,20,CO[C@H]1CC[C@H](Oc2ncccc2Nc2ncnc3sc(C(=O)NCCO)c(C)c23)CC1
9,10,CO[C@H]1CC[C@H](Oc2cc(F)ccc2Nc2ncnc3sc(C(=O)NCCCN4CCN(C)CC4)c(C)c23)CC1
10,440,CO[C@H]1CCCC[C@@H]1Oc1cc(F)ccc1Nc1ncnc2sc(C(=O)NCCN(C)C)c(C)c12
